# Laboratory results from PubChem BioAssay AID1479 (National Center for Advancing Translational Sciences (NCATS), 2009).
# Where “and” joins values, the source holds several entries; their conditions need not be identical. Identical values can stand only once. Only a part is listed here, and it is no random draw. Calls of active or inactive are those of the source. The call rests on the fitted dose curve; in most records, active means well fitted curve in either direction with a large enough effect; inconclusive means small, poorly fitted or top-dose-only effect; inactive means flat fitted curve, though single readings scatter.
# Test: Total Fluorescence Counterscreen for Inhibitors of the Interaction of Thyroid Hormone Receptor and Steroid Receptor Coregulator 2
# Settings: TRb/SRC2 Texas Red total fluorescence interference
# [1] = at 106 µM (top of the series) unless noted
# On the % scale 0 is the no-effect control and ±100 the full control effect.
smiles,measurement,setting,value
CCOC(=O)Nc1cccc([As](=O)(O)O)c1,"fluorescence change, negative = quenching",[1],inactive: -1.41%
CN(N=O)C(=N)N[N+](=O)[O-],"fluorescence change, negative = quenching",[1],inactive: -1.63%
O=P(Nc1ccccn1)(c1cccc2ccccc12)c1cccc2ccccc12,"fluorescence change, negative = quenching",[1],inactive: 4.14%
Cc1cc(SC(NC=O)C(Cl)(Cl)Cl)ncn1 (stereo not drawn),"fluorescence change, negative = quenching",[1],inactive: 0.863%
O=[N+]([O-])c1ccc(Nc2ccc(Oc3ccc([N+](=O)[O-])cc3[N+](=O)[O-])cc2)c([N+](=O)[O-])c1,"fluorescence change, negative = quenching",[1],inactive: -0.424%
CCOC(=O)Nc1ccc([As](=O)(O)O)c(O)c1,"fluorescence change, negative = quenching",[1],inactive: -4.72%
Cc1cc(SC(NC(=O)c2ccccc2)C(Cl)(Cl)Cl)nc(C(C)C)n1 (stereo not drawn),"fluorescence change, negative = quenching",[1],inactive: 0.0308%
CCOC(=O)c1ccc(NC(=O)C(C)(CCl)SC)cc1 (stereo not drawn),"fluorescence change, negative = quenching",[1],inactive: -4.01%
CCC(C)N(CC(C)C)C(=S)SC(NC(C)=O)C(Cl)(Cl)Cl (stereo not drawn),"fluorescence change, negative = quenching",[1],inactive: 1.95%
COP1(=S)c2c(C)nn(CCC#N)c2N=C(c2ccc(F)cc2)N1C (stereo not drawn),"fluorescence change, negative = quenching",[1],inactive: -1.33%
CCCCO[P+](=O)OCCCC,"fluorescence change, negative = quenching",[1],inactive: -3.59% [at 201 µM]
COc1ccc(N/C(=N/P(=O)(N2CCOCC2)N2CCOCC2)N2CCOCC2)cc1,"fluorescence change, negative = quenching",[1],inactive: -3.24%
Cc1c2c(nc3ccccc13)SC(C(Cl)Cl)C2 (stereo not drawn),"fluorescence change, negative = quenching",[1],inactive: -1.66%
Cc1cc(=O)[nH]c(N[N+](=O)[O-])n1,"fluorescence change, negative = quenching",[1],inactive: -0.511%
O=C(OC1CN2CCC1CC2)C12CC3CC(CC(C3)C1)C2 (stereo not drawn),"fluorescence change, negative = quenching",[1],inactive: -1.21%
COc1cc(I)ccc1[As](=O)(O)O,"fluorescence change, negative = quenching",[1],inactive: -2.65%
COc1ccc2nc(NP(=O)(c3ccccc3)c3ccccc3)sc2c1,"fluorescence change, negative = quenching",[1],inactive: -1.41%
ClCCSc1nnc(-c2cccnc2)o1,"fluorescence change, negative = quenching",[1],inactive: -3.01%
CC(C)c1ccc(OP(=O)(Nc2ccccn2)Oc2ccccc2F)cc1 (stereo not drawn),"fluorescence change, negative = quenching",[1],inactive: -0.716%
O=[N+]([O-])c1cc([N+](=O)[O-])c(-c2ccn[nH]2)s1,"fluorescence change, negative = quenching",[1],inactive: -0.757%
CC(C)NC(=O)NP(=O)(Oc1ccccc1)Oc1ccccc1,"fluorescence change, negative = quenching",[1],inactive: 1.53%
CCN(CC)C(=S)SC(NC=O)C(Cl)(Cl)Cl (stereo not drawn),"fluorescence change, negative = quenching",[1],inactive: -1.83%
C[As](=O)(O)c1cccc(C(=O)O)c1,"fluorescence change, negative = quenching",[1],inactive: -1.62%
O=[As](O)(c1ccc(O)cc1)c1ccccc1O,"fluorescence change, negative = quenching",[1],inactive: -2.31%
Cc1ccc(OP(=O)(Nc2ccc([N+](=O)[O-])cn2)Oc2ccc(C)cc2)cc1,"fluorescence change, negative = quenching",[1],inactive: -1.17%
Cc1ccc2nc3c(c(C)c2c1)CC(C(Cl)Cl)S3 (stereo not drawn),"fluorescence change, negative = quenching",[1],inactive: -18.4%
O=[N+]([O-])CC(O)c1ccc([N+](=O)[O-])cc1 (stereo not drawn),"fluorescence change, negative = quenching",[1],inactive: -3.27%
NC(=O)Nc1ccc([As](=O)(O)O)cc1,"fluorescence change, negative = quenching",at 53 µM (top of the series),inactive: -4.01%
same,"fluorescence change, negative = quenching",at 106 µM (top of the series),inactive: -1.55% and inactive: -1%
CN(C(=O)Cc1ccccc1)[C@@H]1CC[C@]2(CCCO2)C[C@H]1N1CCCC1,"fluorescence change, negative = quenching",[1],inactive: -4.59%
CCOP1(=S)c2c(C)nn(CCC#N)c2N=C(c2ccc(F)cc2)N1C (stereo not drawn),"fluorescence change, negative = quenching",[1],inactive: -0.684%
O=[N+]([O-])c1ccc2c(c1)nnn2O,"fluorescence change, negative = quenching",[1],inactive: -3.63%
O=P(Nc1nccs1)(Oc1ccccc1)Oc1ccccc1,"fluorescence change, negative = quenching",[1],inactive: -2.26%
O=P(Nc1nccs1)(c1ccccc1)c1nc2ccccc2s1 (stereo not drawn),"fluorescence change, negative = quenching",[1],inactive: -0.657%
CCOP1(=S)c2c(C)nn(CCC#N)c2N=C(c2ccccc2F)N1C (stereo not drawn),"fluorescence change, negative = quenching",[1],inactive: 0.164%
CS(=O)(=O)c1cc([N+](=O)[O-])c2no[n+]([O-])c2c1,"fluorescence change, negative = quenching",[1],inactive: -4.61%
Nc1ccccc1[As](=O)(O)c1ccccc1,"fluorescence change, negative = quenching",[1],inactive: -1.83%
O=C(O)COc1ccc([As](=O)(O)O)cc1[N+](=O)[O-],"fluorescence change, negative = quenching",[1],inactive: -0.519%
Cc1ccc(NCCc2c([N+](=O)[O-])cc([N+](=O)[O-])cc2[N+](=O)[O-])cc1,"fluorescence change, negative = quenching",[1],inactive: 3.61%
Nc1cccc2c([As](=O)(O)O)cccc12,"fluorescence change, negative = quenching",[1],inactive: 6.22%
CCCOP(=S)(Nc1nc(N)cc(=O)[nH]1)OCCC,"fluorescence change, negative = quenching",[1],inactive: -1.9%
CCOP(=O)(Nc1cccc2ccccc12)OCC,"fluorescence change, negative = quenching",[1],inactive: -1.23%
COc1cc(C2NCCC3(OCCO3)C2(C)C)cc(OC)c1OC (stereo not drawn),"fluorescence change, negative = quenching",[1],inactive: 0.187%
CN(C(=O)Cc1ccc(Cl)c(Cl)c1)[C@@H]1CC[C@]2(CCCO2)C[C@H]1N1CCCC1,"fluorescence change, negative = quenching",[1],inactive: -2.21% and inactive: -4.19%
O=C(OC1CN2CCC1CC2)c1ccc(Cl)cc1 (stereo not drawn),"fluorescence change, negative = quenching",[1],inactive: 1.01%
O=[As](O)(O)c1cccnc1,"fluorescence change, negative = quenching",[1],inactive: -4.57%
COc1cc(C(=O)NCC2(N3CCOCC3)CCCCC2)cc(Cl)c1OC(C)C,"fluorescence change, negative = quenching",[1],inactive: -1.72%
O=[As](O)(c1cccc(O)c1)c1cccc(O)c1,"fluorescence change, negative = quenching",[1],inactive: -5.54%
ClP(Cl)c1ccccc1,"fluorescence change, negative = quenching",[1],inactive: -1.76% [at 201 µM]
CC(C)/C=N\N=C(\N)N[N+](=O)[O-],"fluorescence change, negative = quenching",[1],inactive: 0.686%
O=[As](O)(c1ccccc1Br)c1ccccc1Br,"fluorescence change, negative = quenching",[1],inactive: -4.77%
O=P1(Nc2ccccn2)COc2ccccc2OC1,"fluorescence change, negative = quenching",[1],inactive: -0.738%
CCOP(=O)(Nc1ccc(C)cn1)OCC,"fluorescence change, negative = quenching",[1],inactive: 0.833%
COP(=S)(Cl)OC,"fluorescence change, negative = quenching",[1],inactive: -3.44% [at 201 µM]
CC(C)(C)C(=O)NC(Sc1ncccn1)C(Cl)(Cl)Cl (stereo not drawn),"fluorescence change, negative = quenching",[1],inactive: -1.11%
Clc1n[nH]nc1-c1nn[nH][15n]1,"fluorescence change, negative = quenching",[1],inactive: -3.7%
O=P1(Nc2ncccn2)COc2ccccc2OC1,"fluorescence change, negative = quenching",[1],inactive: 3.93%
Nc1cccc([As](=O)(O)c2ccccc2)c1,"fluorescence change, negative = quenching",[1],inactive: -2.7%
O=[As](O)(c1cccs1)c1cccs1,"fluorescence change, negative = quenching",[1],inactive: -7.02%
O=P1(Nc2ccc(Br)cn2)COc2ccccc2OC1,"fluorescence change, negative = quenching",[1],inactive: 0.808%
CC1CCC(C(C)C)C(OP(=O)(Nc2ccccn2)c2ccccc2)C1 (stereo not drawn),"fluorescence change, negative = quenching",[1],inactive: 0.354%
Cc1nn(-c2ccccc2)c2c1P(=O)(N1CCOCC1)N(C)C(c1ccccc1)=N2 (stereo not drawn),"fluorescence change, negative = quenching",[1],inactive: 0.634%
CN(C)C1(CNC(=O)c2ccc(S(C)(=O)=O)cc2)CCCCC1,"fluorescence change, negative = quenching",[1],inactive: 0.71%
O=[As](O)(c1ccccc1)c1ccc(O)cc1,"fluorescence change, negative = quenching",[1],inactive: -6.74%
CC(=O)NC(SC(=S)N(C)C)C(Cl)(Cl)Cl (stereo not drawn),"fluorescence change, negative = quenching",[1],inactive: 1.29%
O=[N+]([O-])c1ncn(CCn2cnc([N+](=O)[O-])n2)n1,"fluorescence change, negative = quenching",[1],inactive: 4.29%
C(Cc1nn[nH]n1)Cc1nn[nH]n1,"fluorescence change, negative = quenching",[1],inactive: -0.0131%
Nc1ccc([As](=O)(O)c2ccc([N+](=O)[O-])cc2)cc1,"fluorescence change, negative = quenching",[1],inactive: -3.15%
O=P(Nc1ccccn1)(c1ccc(Br)cc1)c1ccc(Br)cc1,"fluorescence change, negative = quenching",[1],inactive: -2.35%
CN(C(=O)Cc1ccccc1)[C@H]1CC[C@@]2(CCCO2)C[C@@H]1N1CCCC1,"fluorescence change, negative = quenching",[1],inactive: -0.726%
Cc1cc([N+](=O)[O-])cc([N+](=O)[O-])c1O,"fluorescence change, negative = quenching",at 106 µM (top of the series),inactive: -1.6%
same,"fluorescence change, negative = quenching",at 201 µM (top of the series),inactive: -5.21%
C[C@H]1OP(=O)(Oc2ccccc2)[C@H](O)[C@H](O)[C@H]1N=[N+]=[N-] (stereo partly drawn),"fluorescence change, negative = quenching",[1],inactive: -0.157%
O=P(Nc1nc2ccccc2s1)(c1ccccc1)c1ccccc1,"fluorescence change, negative = quenching",[1],inactive: -3.53%
CC(C)C(=O)NC(Sc1ccccc1)C(Cl)(Cl)Cl (stereo not drawn),"fluorescence change, negative = quenching",[1],inactive: -0.0628%
O=P(Nc1nccs1)(c1ccccc1)c1ccccc1,"fluorescence change, negative = quenching",[1],inactive: -0.404%
c1nnnn1CCn1cnnn1,"fluorescence change, negative = quenching",[1],inactive: -1.6%
C[C@H]1OP(=O)(Oc2ccccc2)C[C@@H]2O[C@@H]21 (stereo partly drawn),"fluorescence change, negative = quenching",[1],inactive: -2.34%
C[C@@H]1C=CCP(=O)(Oc2ccccc2)O1 (stereo partly drawn),"fluorescence change, negative = quenching",[1],inactive: -1.46%
CC(=O)Nc1ccc(Oc2c([N+](=O)[O-])cc([N+](=O)[O-])cc2[N+](=O)[O-])cc1,"fluorescence change, negative = quenching",[1],inactive: 0.36%
CC(=O)Nc1ccc([As](=O)(O)O)c(O)c1,"fluorescence change, negative = quenching",[1],inactive: -1.9%
O=P1(Nc2nc3ccc(Cl)cc3s2)COc2ccccc2O1 (stereo not drawn),"fluorescence change, negative = quenching",[1],inactive: -2.55%
CC(C)(C)C(=O)NC(Sc1ccccc1)C(Cl)(Cl)Cl (stereo not drawn),"fluorescence change, negative = quenching",[1],inactive: 0.66%
CCC(=O)N1C2C3N(C(=O)CC)C1C1N(C(=O)CC)C(C(N1C(=O)CC)N3C(=O)CC)N2C(=O)CC,"fluorescence change, negative = quenching",[1],inactive: 0.639%
O=C(OC1CN2CCC1CC2)c1ccccc1 (stereo not drawn),"fluorescence change, negative = quenching",[1],inactive: -1.15%
CC(=O)NC(SC(=S)N(CC(C)C)CC(C)C)C(Cl)(Cl)Cl (stereo not drawn),"fluorescence change, negative = quenching",[1],inactive: 3.69%
Cc1ccc(OP(=O)(Nc2ccccn2)Oc2ccc(C)cc2)cc1,"fluorescence change, negative = quenching",[1],inactive: 0.554%
COC(=O)c1cc2c(s1)N=C(c1ccccc1)N(C)P2(=O)N1CCOCC1 (stereo not drawn),"fluorescence change, negative = quenching",[1],inactive: 1.1%
O=c1c2cc([N+](=O)[O-])ccc2[nH]c2c([N+](=O)[O-])cc([N+](=O)[O-])cc12,"fluorescence change, negative = quenching",[1],inactive: -9.98%
CN(C)C(=O)Oc1noc2ccccc12,"fluorescence change, negative = quenching",[1],inactive: -1.93%
Cc1ccccc1OP(=O)(Nc1ccccn1)Oc1ccccc1C,"fluorescence change, negative = quenching",[1],inactive: -0.587%
Cc1ccc(NP(=O)(Oc2cccc(C)c2)Oc2cccc(C)c2)nc1,"fluorescence change, negative = quenching",[1],inactive: -1.02%
CCOC(=O)NC(Sc1ccccc1)C(Cl)(Cl)Cl (stereo not drawn),"fluorescence change, negative = quenching",[1],inactive: 0.568%
c1ccc(-c2nn[nH]n2)c(-c2nn[nH]n2)c1,"fluorescence change, negative = quenching",[1],inactive: -4%
CCNC(=S)/N=C(\N)N[N+](=O)[O-],"fluorescence change, negative = quenching",[1],inactive: -3.8%
O=C(NC1CCS(=O)(=O)C1)NP(=S)(Oc1ccccc1)Oc1ccccc1 (stereo not drawn),"fluorescence change, negative = quenching",[1],inactive: -3.51%
Nc1cccc2ccc([As](=O)(O)O)cc12,"fluorescence change, negative = quenching",[1],inactive: 10.2%
CCN(N=Nc1nonc1N)c1nonc1N,"fluorescence change, negative = quenching",[1],inactive: 1.49%
O=P(Nc1nc2ccc(Cl)cc2s1)(c1ccccc1)c1ccccc1,"fluorescence change, negative = quenching",[1],inactive: -3.16%
CC(=O)Nc1ccc([As](=O)(O)O)cc1,"fluorescence change, negative = quenching",[1],inactive: -3.83%
O=C(O)c1ccccc1[As](=O)(O)O,"fluorescence change, negative = quenching",[1],inactive: -2.7%
Cc1ccc(NP(=O)(Oc2ccccc2F)Oc2ccccc2F)nc1,"fluorescence change, negative = quenching",[1],inactive: 0.648%
Cc1cc(SC(NC(=O)c2ccc(F)cc2)C(Cl)(Cl)Cl)ncn1 (stereo not drawn),"fluorescence change, negative = quenching",[1],inactive: 0.232%
